From patent US20230139883A1, “Peptides for Inducing Differentiation” (Shimadzu Corporation, priority 2020, published 2023) come the findings set out here.

Assay [1] concerns iPS-hFB. The assay can be described thus: Differentiation induction of iPS cells into cardiomyocytes: observation of beating cell clusters. The note with it: for day on which beating cell clusters were observed: Example 4: peptide + 5 ng/mL bFGF + Activin A on Day 1 (protocols 7, 8, 9); for state of beating compared among the groups: Example 4: peptide + bFGF + Activin A (protocols 7, 8, 9) and bFGF + Activin A (protocol 10).

In assay [2] the test system is iPS-hFB. Description: Differentiation induction of iPS cells into cardiomyocytes: RT-qPCR of cardiomyocyte markers cTNT and Actinin.
Assay [3] deals with iPS-hFB. The assay can be described thus: Differentiation induction of iPS cells into cardiomyocytes: Actinin immunostaining for sarcomere structures. In kind it is cell-based. The note with it: Day 23 cell clusters (FIGS. 6 and 7). How it is done: Furthermore, on Day 23 Actinin immunostaining was used to observe whether cardiomyocyte-specific sarcomere structures were recognized. Specifically, Day 23 cell clusters were reduced to single cells by collagenase and Accumax treatments, and then the cells were seeded at 10000 cells/well to 24-well plates coated with fibronectin. The next day, the cells were fixed with 4% paraformaldehyde solution and permeabilized with 0.1% Triton-X/PBS. The cells were then subjected to blocking treatment with PBS containing 5% Donkey Serum, and 1% BSA. After washing with 0.01% Triton-X/PBS, mouse anti-Actinin antibody (Sigma) was added and the reaction was carried out at room temperature for 60 minutes. After that, the cells were washed with 0.01% Triton-X/PBS, Alexa594-modified Anti-mouse antibody (abcam) was added, and the reaction was carried out at room temperature for 60 minutes.

Assay [4] deals with iPS-hFB. The assay can be described thus: Differentiation induction of iPS cells into neurons: RT-qPCR of SYN1, MAP2 and Nr2f1. The note with it: for Nr2f1 gene expression level: 0.25 nM peptide on Day 3, Day 35; for MAP2 gene expression level / SYN1 gene expression level: 0.25 nM peptide, Day 35. In kind it is cell-based. How it is done:
An attempt to apply 100nX to a differentiation induction system from iPS cells to neurons was made. […] A group in which G-MEM supplemented with 20% KSR (Thermo), 1xNEAA (Thermo), 0.1 mM 2-mercaptoethanol (Wako Pure Chemicals), 1 mM sodium pyruvate (Thermo), 20 μM Y27632 (Wako Pure Chemicals), 3 μM IWR-1-endo (Wako Pure Chemicals), 5 μM SB431542 (Wako Pure Chemicals) was added at 100 μL/well was prepared as a control group (FIG. 14, protocol 2). On Day 6, the entire medium was replaced with the medium of each condition containing no Y27632 (Wako Pure Chemicals). Likewise, the medium was exchanged at Day 10 and Day 14. The medium was removed on Day 18 and the cells added with DMEM/F12 (GlutaMax) (Thermo) containing 1% N-2 Supplement and 1% Chemically Defined Lipid Concentrate were transferred to EZSPHERE (AGC Technoglass) at 2 mL/well. On Day 21, 24, and 27, the medium was replaced with DMEM/F12 (GlutaMax) (Thermo) containing 1% N-2 Supplement. Further, On Day 30, and 33, the medium was replaced with DMEM/F12 (GlutaMax) (Thermo) containing 1% N-2 Supplement and 1% Chemically Defined Lipid Concentrate.

The mark [5] stands for this setting: protocol 2: 0.05 or 0.5 μM peptide + Activin A on Day 1, no bFGF, Day 16 to Day 22.
The mark [6] stands for this setting: Example 2, protocol 2, Day 23, compared to protocols 1, 3 and 4.
The mark [7] stands for this setting: Example 4: 0.05 to 5 μM peptide in combination with bFGF, Day 23.
Setting [8] is: Example 12: 0.0005, 0.005, 0.05 or 0.5 μM peptide, Day 23.
[9] abbreviates: Example 12: 0.0005 to 0.5 μM peptide + BMP4 + Activin A on Day 1, Day 23, compared to conventional protocol 1.
The mark [10] stands for this setting: compared to control protocol 2 (no bFGF).
The mark [11] stands for this setting: compared to conventional protocol 1 (bFGF).

Turning to “CAAELAALEAELAALEGVPGDNNGTRGKLYHLKNKLHRLKNAC [100n9]”, in the assay on iPS-hFB [1], the “day on which beating cell clusters were observed” value (“day” below) was “on or after Day 10 to Day 11” and the “state of beating compared among the groups” value is “no difference in the state of beating among the groups”.

Turning to “HBD-100nX: heparan sulfate binding peptide WQPPRARIG (SEQ ID NO: 49) fused to 100nX (X is 9: SEQ ID NO: 9) (WQPPRARIGCAAELAALEAELAALEGVPGDNNGTRGKLYHLKNKLHRLKNAC)”, in the assay on iPS-hFB [1], the “day” value is “on or after Day 10 to Day 11” and the “state of beating compared among the groups” value is on record as “no difference in the state of beating among the groups”. Besides, in the assay on iPS-hFB [1] (setting [5]), the “cell clusters in which beating was observed” value was “no less than 80%” and the state of beating entry is on record as “beating was observed over the entire cell clusters”. Moreover, in the assay with iPS-hFB [2] (Example 2, 0.05 or 0.5 μM peptide, Day 23), the “concentration dependence of gene expression (cTNT, ACTN2)” value (“concentration dependence” for short) is listed as “peptide concentration-dependent increase in gene expression”. In addition, in the assay with iPS-hFB [2] (setting [6]), the ACTN2 expression level entry is recorded as “significantly increased” and the cTNT expression level entry is “significantly increased”. Further, in the assay on iPS-hFB [2] (setting [7]), the “ACTN2 expression level, dependence on peptide concentration” value is listed as “increased dependent on peptide concentration” and the “cTNT expression level, dependence on peptide concentration” value is “increased dependent on peptide concentration”. For the same molecule, in the assay with iPS-hFB [2] (Example 4: peptide in combination with bFGF, Day 23), the “gene expression levels (cTNT, ACTN2), comparison among the peptides” value is recorded as “highest value”. Besides, the “gene expression levels (cTNT, ACTN2)” value in the assay with iPS-hFB [2] (Example 4: peptide in combination with bFGF, Day 23, compared to conventional protocol 1) is reported as “significantly increased”. Besides, in the assay with iPS-hFB [2] (setting [8]), the “concentration dependence” value is on record as “peptide concentration-dependent manner”. In the assay with iPS-hFB [2] (setting [9]), the ACTN2 expression level entry is given as “significantly increased” and the cTNT expression level result was “significantly increased”. Further, the “sarcomere structure by Actinin immunostaining” value with iPS-hFB [3] was “prominent sarcomere structure and the formation of highly functional cardiomyocytes”. In addition, in the assay on iPS-hFB [4] (setting [10]), the “Nr2f1 gene expression level” value was “significantly increased”, the “MAP2 gene expression level” value was “significantly increased” and the “SYN1 gene expression level” value is reported as “significantly increased”. Also, in the assay with iPS-hFB [4] (setting [11]), the “Nr2f1 gene expression level” value is “significantly increased”, the “MAP2 gene expression level” value is listed as “similar” and the “SYN1 gene expression level” value is recorded as “similar”. For the same molecule, in the assay on iPS-hFB [4] (overall, relative to bFGF), the “promotion of / contribution to neural differentiation” value is reported as “as effective as or better than conventional bFGF”.

In the case of “HBD-F3-100n9: heparan sulfate binding peptide WQPPRARIG (SEQ ID NO: 49) fused to F3-100n9 (SEQ ID NO: 27) (WQPPRARIGCAAELAALEAELAALEGVRPETMSQVGKLLVLKHRLGQLKRAC)”, in the assay with iPS-hFB [2] (setting [8]), the “concentration dependence” value is recorded as “different response tendency”. Besides, in the assay on iPS-hFB [2] (setting [9]), the ACTN2 expression level entry is listed as “significantly increased” and the cTNT expression level entry is “significantly increased”.

B1: 100nX-Dimer: a dimerized peptide of 100nX (SEQ ID NO: 9) (peptide)
chain 1: CAAELAALEAELAALEGVPGDNNGTRGKLYHLKNKLHRLKNAC
chain 2: CAAELAALEAELAALEGVPGDNNGTRGKLYHLKNKLHRLKNAC
modifications: dimerized
As to B1, in the assay on iPS-hFB [1], the “day” value is recorded as “on or after Day 10 to Day 11” and the “state of beating compared among the groups” value is “no difference in the state of beating among the groups”.
